The record followed here is patent US20080027145A1, “Therapeutic Molecules and Methods for Generating and/or Selecting Same” (priority 2004, published 2008).

Holding throughout (assay): Biacore solution competition against immobilised mouse wtBimBH3
In experiment [1] the target is human Bcl-2 ΔC22 (human), P10415.
Experiment [2] deals with human Bcl-xL ΔC24 (human), Q07817.
In experiment [3] the target is T1, human Bcl-w ΔC29 (C29S A128E) (human), Q92843.
T1 chain: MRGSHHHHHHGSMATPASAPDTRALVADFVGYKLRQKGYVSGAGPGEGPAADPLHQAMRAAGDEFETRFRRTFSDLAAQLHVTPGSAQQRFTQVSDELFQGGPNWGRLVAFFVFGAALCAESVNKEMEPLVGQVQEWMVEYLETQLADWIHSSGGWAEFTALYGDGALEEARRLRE

The IC50 is the concentration that inhibits the measured activity by half. A lower IC50 goes with greater potency in that assay.

Consider EEQWAREIGAQLRRMADDLNAQYERR (modifications not checked) [Puma (130-155) BH3 peptide, human], for which the IC50 turned out to be 3.3 nM in experiment [1], 6.3 nM in experiment [2] and 5.1 nM in experiment [3].
